Assay results: US6365633B1, “Method of treating eating disorders” (Knoll Pharmaceutical Company, priority 1999, dated 2002)

Assays:
[1] = biological target: [3H]Dopamine reuptake in rat brain tissue; assay: in vitro [3H]dopamine reuptake inhibition in rat brain tissue; type: biochemical; conditions: means of ≧3 separate determinations
[2] = biological target: [3H]5-HT reuptake in rat brain tissue; conditions: read-out: Ki (nM) [3H]5-HT, reuptake inhibition, means of ≧3 separate determinations

SMILES | Ki [1] [nM] | Ki [2] [nM]
CNC(CC(C)C)C1(c2ccc(Cl)cc2)CCC1 (stereo not shown) [Example 1, N-{1-[1-(4-chlorophenyl)cyclobutyl]-3-methylbutyl}-N-methylamine] | 24 | 18
CC(C)CC(N)C1(c2ccc(Cl)cc2)CCC1 (stereo not shown) [Example 2, 1-[1-(4-chlorophenyl)cyclobutyl]-3-methylbutylamine] | 31 | 26
